Results taken from patent publication US20090054326A1, “FORMULATIONS FOR ENHANCED MUCOSAL DELIVERY OF PYY” (NASTECH PHARMACEUTICAL COMPANY INC., priority 2005, published 2009).

Key:
[1] = system: normal, human-derived tracheal/bronchial epithelial cells (EpiAirway Tissue Model); assay: Cytotoxicity, LDH assay in EpiAirway tissue model; assay type: cell-based; conditions: after 1-h incubation
Procedure: (§1) Samples were evaluated in an in vitro tissue model. […] Inserts were feed for each day of recovery.
The amount of cell death (cytotoxicity) was assayed by measuring the loss of lactate dehydrogenase (LDH) from the cells using a CytoTox 96 Cytoxicity Assay Kit (Promega Corp., Madison, Wis.).
LDH analysis of the apical media was evaluated. The appropriate amount of media was added to the apical surface in order to total 300 uL, taking into consideration the initial sample loading volume. The inserts were shaken for 5 minutes, and then 150 uL of the apical media was removed and dispensed into eppendorf tubes and centrifuged at 10000 rpm for 3 minutes. A volume of 2 uL of the supernatant was removed and added to a 96 well plate. A volume of 48 uL of media was used to dilute the supernatant to make a 25× dilution. For LDH analysis of the basolateral media, 50 uL of sample was loaded into a 96-well assay plate. Fresh, cell-free culture medium was used as a blank. Fifty microliters of substrate solution was added to each well and the plates incubated for 30 minutes at room temperature in the dark. Following incubation, 50 μl of stop solution was added to each well and the plates read on an optical density plate reader at 490 nm. All samples and the negative and media controls had relatively low cytotoxicity by basolateral LDH assay, i.e., no more than 20% compared to the media control. […]

[2] = system: normal, human-derived tracheal/bronchial epithelial cells (EpiAirway Tissue Model); assay: Cell viability, MTT assay in EpiAirway tissue model; assay type: cell-based; conditions: MTT after 1-h incubation
Procedure: as §1
Cell viability was assessed using the MTT assay (MTT-100, MatTek kit). Thawed and diluted MTT concentrate was pipetted (300 μl) into a 24-well plate. Tissue inserts were gently dried, placed into the plate wells, and incubated at 37° C. for 3 hours. After incubation, each insert was removed from the plate, blotted gently, and placed into a 24-well extraction plate. The cell culture inserts were then immersed in 2.0 ml of the extractant solution per well (to completely cover the sample). The extraction plate was covered and sealed to reduce evaporation of extractant. After an overnight incubation at room temperature in the dark, the liquid within each insert was decanted back into the well from which it was taken, and the inserts discarded. The extractant solution (200 μl in at least duplicate) was pipetted into a 96-well microtiter plate, along with extract blanks. The optical density of the samples was measured at 550 nm on a plate reader.

Triton X
cytotoxicity by LDH assay [1]: relative high cytotoxicity
cell viability [2]: substantially decreased cellular viability
